Assay results: article PMC6379965, “Expression and activity of the calcitonin receptor family in a sample of primary human high-grade gliomas” (BMC Cancer, 2019)

By UniProt entry, the sequences of proteins in these tests, tags left out. Residues count along the entry.
UniProt O60894, 27-148: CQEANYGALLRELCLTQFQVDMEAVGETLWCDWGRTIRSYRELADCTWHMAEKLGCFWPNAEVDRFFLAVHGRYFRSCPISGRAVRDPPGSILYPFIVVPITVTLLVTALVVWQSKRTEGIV
UniProt Q16602, 23-461: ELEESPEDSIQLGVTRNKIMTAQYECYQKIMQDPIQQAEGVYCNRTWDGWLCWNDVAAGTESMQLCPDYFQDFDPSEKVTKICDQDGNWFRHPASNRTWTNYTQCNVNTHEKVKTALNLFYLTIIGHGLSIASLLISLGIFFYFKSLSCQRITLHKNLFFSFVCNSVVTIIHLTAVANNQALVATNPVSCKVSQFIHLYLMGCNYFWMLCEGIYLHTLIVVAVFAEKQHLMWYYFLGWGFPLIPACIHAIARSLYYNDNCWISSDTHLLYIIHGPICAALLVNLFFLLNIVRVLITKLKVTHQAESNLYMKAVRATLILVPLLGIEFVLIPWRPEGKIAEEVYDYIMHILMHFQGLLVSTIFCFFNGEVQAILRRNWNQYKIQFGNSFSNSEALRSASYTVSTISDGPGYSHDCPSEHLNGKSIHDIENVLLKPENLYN

What was measured:
Assay type in all cases: cell-based
Conditions in all cases: 1 μM αCGRP(8–37)
[1] = biological target: T1, CGRP (CLR/RAMP1) receptor in JK2 cell line (Homo sapiens, UniProt O60894+Q16602); test: cAMP accumulation, αCGRP and AM, JK2
T1 construct: the other cell lines have functional CGRP (CLR/RAMP1) receptors; endogenous in cells; host or cells: PB1, JK2 and WK1 patient-derived high-grade glioma cell lines
Experimental: (§1) Primary patient high-grade glioma (HGG) cell lines, in vitro surrogates of glioblastoma, were developed by QIMR-Berghofer Medical Research Institute (Brisbane, Australia) and represent 3 distinct GBM subtypes: SB2b and PB1 (classical), JK2 (proneural) and WK1(mesenchymal), who supplied these directly for this study. GBM cell lines were cultured as adherent monolayers on matrigel (BD Biosciences)-coated flasks using StemPro NSC SFM serum free cell culture medium (Thermo Fisher Scientific) supplemented with 20 ng/ml EGF and 20 ng/ml FGFb, 1% D-glutamine and 1% of penicillin/ streptomycin (further referred as StemPro complete medium).
(§2) GBM cell lines were seeded at 38000 cells/well (SB2b) or 35,000 cells/well (PB1, JK2 and WK1) in 96-well matrigel-coated plates and incubated for 24 h at 37°C, 5% CO2 in humidified incubator in StemPro complete medium. Media was replaced with stimulation buffer (phenol red free F12 media, 0.1% BSA, 0.5 mM IBMX, pH 7.4). […] Cells were lysed (0.3% Tween 20, 5 mM Hepes, 0.1% BSA, pH 7.4) and 5 μl of cell lysate from each well was transferred to a corresponding well of 384-well optiplate. […] Data were analysed by three-parameter logistic curve and are presented as percentage of 10^− 5 M forskolin response.

[2] = biological target: T2, CGRP (CLR/RAMP1) receptor in WK1 cell line (Homo sapiens, UniProt O60894+Q16602); test: cAMP accumulation, αCGRP and AM, WK1
T2 construct: the other cell lines have functional CGRP (CLR/RAMP1) receptors; endogenous in cells; host or cells: PB1, JK2 and WK1 patient-derived high-grade glioma cell lines
Experimental: as §1, §2

[3] = biological target: T3, CGRP (CLR/RAMP1) receptor in PB1 cell line (Homo sapiens, UniProt O60894+Q16602); test: cAMP accumulation, αCGRP and AM, PB1
T3 construct: the other cell lines have functional CGRP (CLR/RAMP1) receptors; endogenous in cells; host or cells: PB1, JK2 and WK1 patient-derived high-grade glioma cell lines
Experimental: as §1, §2

αCGRP(8–37): CGRP receptor antagonist
decrease in potency of αCGRP response by antagonist [1]: ~100 fold | shift in the EC50 of αCGRP by antagonist [1]: 2 logarithmic unit | decrease in potency of αCGRP response by antagonist [2]: ~100 fold | shift in the EC50 of αCGRP by antagonist [2]: 2 logarithmic unit | decrease in potency of αCGRP response by antagonist [3]: ~100 fold | shift in the EC50 of αCGRP by antagonist [3]: 2 logarithmic unit
